The text below walks through data of PubChem BioAssay AID651560 (Sanford-Burnham Center for Chemical Genomics, 2012).

Chains of the proteins cited; added tags and fusions are not shown.
UniProt P24666, whole entry: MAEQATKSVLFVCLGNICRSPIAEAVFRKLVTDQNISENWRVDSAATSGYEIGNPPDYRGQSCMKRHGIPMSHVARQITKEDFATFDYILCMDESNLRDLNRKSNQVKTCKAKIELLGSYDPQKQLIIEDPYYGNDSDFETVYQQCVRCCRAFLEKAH

Each structure is given as a SMILES string. This is a selection; strong and weak results do not stand in their true shares. Active and inactive are the calls of the source.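 The calls were made as follows: active = compounds that cut the enzyme signal by at least half of the control window in the single-dose screen; inactive = the rest.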

This experiment addresses Low molecular weight phosphotyrosine protein phosphatase (Homo sapiens) (UniProt P24666). Put plainly: LMPTP phosphatase inhibitors, primary screen, biochemical, fluorescence intensity, uHTS (AID 651560).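 Also: plate controls were DMSO wells with enzyme plus substrate for no effect and substrate without enzyme for full effect.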 The note with it: recombinant LMPTP-A, OMFP fluorogenic substrate, at 20 µM, stronger effect = higher value. The method in brief: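 Test system: LMPTP-A phosphatase enzyme; input: 0.625 nM LMPTP-A final; reagent: OMFP substrate, 400 µM final; compound dosing: 20 µM single dose, 3% DMSO; incubation: 50 min dark incubation at room temperature; measured by: endpoint fluorescence intensity from OMFP dephosphorylation; measure: % inhibition relative to no-enzyme and uninhibited control wells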
For the compound `O=c1[nH]c2ccccc2n1C1CCN(C(c2ccccc2)c2nnnn2C2CCCCC2)CC1` (stereo not given), the inhibition is inactive: 4.22%.

As for `O=c1[nH]c2ccccc2n1C1CCN(C(c2cccc3ccccc23)c2nnnn2C2CCCC2)CC1` (stereo not given), the inhibition is inactive: 4.07%.

In the case of `COc1cc(C(=O)NCC2(N(C)C)CCCCC2)ccc1OC(F)F`, the inhibition was inactive: -0.511%.

Consider `CCOC(=O)N1CCC(Nc2cccc(C)c2)CC1`, for which the inhibition is inactive: -2.09%.

Turning to `CCOc1ccc(C)cc1CN(CCCl)CCCl`, the inhibition was inactive: -5.36%.

As for `O=C1CCN(Cc2ccccc2)CC1`, the inhibition is inactive: 4.26%.

For the compound `CC(C)(C)n1nnnc1C(c1ccccc1)N1CCC(n2c(=O)[nH]c3ccccc32)CC1` (stereo not given), the inhibition was inactive: 4.64%.

On to `CCOC(=O)N1CCC(Nc2ccc(F)cc2)CC1`, for which the inhibition is inactive: -3.85%.

`COc1ccc(NC2CCN(CCc3ccccc3)CC2)c(OC)c1`: the inhibition was inactive: -4.43%.

In the case of `O=C(NCC1(N2CCCCC2)CCCCC1)c1ccc(F)cc1`, the inhibition is inactive: -0.678%.

Regarding `CCCCOc1ccc(C(=O)NCC2(N3CCOCC3)CCCCC2)cc1`, the inhibition was inactive: -0.882%.

Take `O=P1(N(CCCl)CCCl)SCCCS1`: the inhibition is inactive: -2.05%.

As for `CCCCn1nnnc1C(c1cc2ccccc2o1)N1CCC(n2c(=O)[nH]c3ccccc32)CC1` (stereo not given), the inhibition was inactive: 4.22%.

Take `O=C(NCC1(N2CCOCC2)CCCCC1)c1cc2ccccc2o1`: the inhibition is inactive: -1.12%.

On to `Cc1cc(C)cc(N(C(=O)c2ccccc2)C2CCN(C(=O)OC(C)(C)C)CC2)c1`, for which the inhibition is inactive: 1.27%.

In the case of `O=c1[nH]c2ccccc2n1C1CCN(C(c2ccccc2OC(F)(F)F)c2nnnn2C2CCCCC2)CC1` (stereo not given), the inhibition was inactive: 2.73%.

Consider `O=C(NCC1(N2CCCCC2)CCCCC1)c1ccc(Cl)nc1`, for which the inhibition is inactive: 0.754%.

For the compound `CCCCn1nnnc1C(c1ccc(OC)cc1)N1CCC(n2c(=O)[nH]c3ccccc32)CC1` (stereo not given), the inhibition is inactive: 4.18%.

As for `CCOC(=O)N1CCC(Nc2ccc(OC)cc2)CC1`, the inhibition is inactive: 0.63%.

Regarding `COc1ccc(Cl)cc1C(=O)NCC1(N2CCOCC2)CCCCC1`, the inhibition was inactive: -1.92%.

As for `O=c1[nH]c2ccccc2n1C1CCN(C(c2cc3ccccc3o2)c2nnnn2C2CCCCC2)CC1` (stereo not given), the inhibition was inactive: 4.28%.

In the case of `O=C(OC1CN2CCC1CC2)C1c2ccccc2Oc2ccccc21` (stereo not given), the inhibition is inactive: -1.23%.

As to `N#CC1(Nc2ccccc2)CCN(Cc2ccccc2)CC1`, the inhibition was inactive: -1.16%.

Regarding `O=C(NCC1(N2CCCCC2)CCCCC1)c1ccc(Cl)s1`, the inhibition is inactive: 0.667%.

For the compound `CCCCn1nnnc1C(c1cccs1)N1CCC(n2c(=O)[nH]c3ccccc32)CC1` (stereo not given), the inhibition is inactive: 2.8%.

In the case of `O=C(NCC1(N2CCCCC2)CCCCC1)c1cccs1`, the inhibition is inactive: -6.65%.

Consider `CCCCn1nnnc1C(CC)N1CCC(n2c(=O)[nH]c3ccccc32)CC1` (stereo not given), for which the inhibition was inactive: 2.06%.

For `O=C(NCC1(N2CCCCC2)CCCCC1)c1ccc(=O)[nH]c1`, the inhibition was inactive: -1.46%.

As to `CCC(c1nnnn1C1CCCC1)N1CCC(n2c(=O)[nH]c3ccccc32)CC1` (stereo not given), the inhibition is inactive: 2.05%.

For the compound `CC(C)(C)OC(=O)N1CCC(N(C(=O)c2ccccc2)c2ccc(F)cc2)CC1`, the inhibition was inactive: -0.972%.

Consider `COc1ccc(C(=O)NCC2(N3CCCCC3)CCCCC2)c(OC)c1OC`, for which the inhibition was inactive: 0.585%.

Take `COc1ccc(C(=O)NCC2(N3CCCCC3)CCCCC2)cc1`: the inhibition was inactive: 3.83%.

As to `Cc1cccc(NC2(C#N)CCN(Cc3ccccc3)CC2)c1`, the inhibition is inactive: -0.337%.

For `CSc1ccccc1C(=O)NCC1(N2CCCCC2)CCCCC1`, the inhibition was inactive: 1.99%.

In the case of `O=C(NCC1(N2CCCCC2)CCCCC1)c1cncc(Br)c1`, the inhibition was inactive: 2.19%.

Turning to `CN1CCC(Nc2cccc(F)c2)CC1`, the inhibition is inactive: -2.29%.

Turning to `CCCOc1ccc(C(=O)NCC2(N(C)C)CCCCC2)cc1OC`, the inhibition was inactive: 0.343%.

In the case of `Cc1ccc(C(=O)NCC2(N(C)C)CCCCC2)o1`, the inhibition is inactive: -0.627%.

Take `COc1ccc(C(c2nnnn2C2CCCC2)N2CCC(n3c(=O)[nH]c4ccccc43)CC2)cc1` (stereo not given): the inhibition was inactive: 3.87%.

`CN(C)c1cccc(C(=O)NCC2(N3CCCCC3)CCCCC2)c1`: the inhibition is inactive: 0.413%.

With `COc1ccc(CN(CCCl)CCCl)cc1Cl`, the inhibition is inactive: -5.71%.

In the case of `CC(C)c1ccc(NC2CCN(C(=O)OC(C)(C)C)CC2)cc1`, the inhibition was inactive: 0.245%.

`CCCCn1nnnc1C(c1ccccc1OC(F)(F)F)N1CCC(n2c(=O)[nH]c3ccccc32)CC1` (stereo not given): the inhibition is inactive: 7.36%.

On to `CCCCn1nnnc1C(c1ccnc2ccccc12)N1CCC(n2c(=O)[nH]c3ccccc32)CC1` (stereo not given), for which the inhibition was inactive: 6.26%.

In the case of `CCC(c1nnnn1C(C)(C)C)N1CCC(n2c(=O)[nH]c3ccccc32)CC1` (stereo not given), the inhibition was inactive: 5%.

Take `O=C(NCC1(N2CCOCC2)CCCCC1)c1cc(F)c(F)cc1Cl`: the inhibition was inactive: -1.51%.

As to `COc1cc(OC)c(C(=O)NCC2(N(C)C)CCCCC2)cc1OC`, the inhibition is inactive: -2%.

For the compound `O=C(NCC1(N2CCCCC2)CCCCC1)c1cccc(C(F)(F)F)c1`, the inhibition is inactive: 1.16%.

With `CCCCn1nnnc1C(c1cccc2ccccc12)N1CCC(n2c(=O)[nH]c3ccccc32)CC1` (stereo not given), the inhibition is inactive: 5.26%.

With `CC(C)c1ccc(C(=O)NCC2(N3CCOCC3)CCCCC2)cc1`, the inhibition is inactive: -0.0176%.

On to `COc1ccc(NC2CCN(C(=O)OC(C)(C)C)CC2)cc1`, for which the inhibition is inactive: 0.948%.

For the compound `CN1CCN(CCOC(=O)C(O)(c2ccccc2)c2ccccc2)CC1`, the inhibition is inactive: -3.28%.

With `O=C(NCC1(N2CCOCC2)CCCCC1)c1cc(=O)[nH]c2ccccc12`, the inhibition was inactive: -0.919%.

On to `COc1cc(C(=O)NCC2(N3CCCCC3)CCCCC2)ccc1OC(F)F`, for which the inhibition was inactive: 7.82%.

Turning to `O=C(NCC1(N2CCCCC2)CCCCC1)c1ccc(OC(F)F)cc1`, the inhibition is inactive: 1.87%.

Regarding `CC(C)(C)n1nnnc1C(c1ccccc1OC(F)(F)F)N1CCC(n2c(=O)[nH]c3ccccc32)CC1` (stereo not given), the inhibition was inactive: 5.14%.

As for `CSc1ccc(C(=O)NCC2(N3CCOCC3)CCCCC2)cc1`, the inhibition is inactive: 0.441%.

Regarding `O=C(NCC1(N2CCCCC2)CCCCC1)c1cccc([N+](=O)[O-])c1`, the inhibition is inactive: 1.91%.

For the compound `N#CC1(Nc2ccccc2)CCN(CCc2ccccc2)CC1`, the inhibition is inactive: 0.722%.

Take `O=c1[nH]c2ccccc2n1C1CCN(C(c2ccccc2OC(F)(F)F)c2nnnn2C2CCCC2)CC1` (stereo not given): the inhibition is inactive: 5.57%.

In general, inhibition refers to the relative decrease from the control value, in per cent.
